Experimental data as given in US7041461B2 (H. Lundbeck A/S, priority 1998, dated 2006).

Protein sequences, listed by entry. Tags and fused reporters are not part of them. Lines headed by an entry give the natural chain unless they say otherwise; changes in a name come on top. Residues count along the entry.
UniProt Q9EP86: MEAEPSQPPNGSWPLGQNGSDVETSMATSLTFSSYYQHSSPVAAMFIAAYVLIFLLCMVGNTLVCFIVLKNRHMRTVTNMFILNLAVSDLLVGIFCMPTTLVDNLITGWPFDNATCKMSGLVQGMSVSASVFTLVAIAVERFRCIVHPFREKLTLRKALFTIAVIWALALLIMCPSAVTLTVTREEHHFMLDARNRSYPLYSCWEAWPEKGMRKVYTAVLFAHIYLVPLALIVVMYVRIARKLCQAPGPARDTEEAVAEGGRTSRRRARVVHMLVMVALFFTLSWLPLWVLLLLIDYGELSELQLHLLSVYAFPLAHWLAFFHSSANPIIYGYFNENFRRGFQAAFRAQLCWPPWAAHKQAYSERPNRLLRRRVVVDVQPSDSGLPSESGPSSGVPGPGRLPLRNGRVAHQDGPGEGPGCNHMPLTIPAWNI
UniProt Q9Y5X5, 103-522: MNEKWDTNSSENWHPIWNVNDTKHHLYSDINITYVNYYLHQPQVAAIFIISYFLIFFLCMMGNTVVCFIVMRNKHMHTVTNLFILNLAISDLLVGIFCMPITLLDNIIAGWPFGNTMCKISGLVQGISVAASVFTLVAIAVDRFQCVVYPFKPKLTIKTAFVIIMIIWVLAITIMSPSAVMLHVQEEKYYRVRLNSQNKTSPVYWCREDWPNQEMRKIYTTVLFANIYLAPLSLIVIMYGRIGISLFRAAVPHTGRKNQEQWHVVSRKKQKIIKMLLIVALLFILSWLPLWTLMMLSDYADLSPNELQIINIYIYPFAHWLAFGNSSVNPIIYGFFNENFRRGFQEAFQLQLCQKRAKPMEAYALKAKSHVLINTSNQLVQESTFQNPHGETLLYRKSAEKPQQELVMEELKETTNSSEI

What was measured:
[1] = biological target: T1, cloned rat NPFF1 receptor (Rattus norvegicus, UniProt Q9EP86); test: Radioligand binding to cloned rat NPFF1 receptor, membranes of transiently transfected COS-7 cells; conditions: competition of [125I]D-Tyr-NPFF binding; transiently transfected COS-7 membranes; read-out: pKi for cloned rat NPFF1 receptor binding in COS-7 cells, MEAN (converted)
T1 construct: expressed in transfected cells; host or cells: COS-7 cells, transient; membranes
Experimental: Transfected cells from culture flasks are scraped into 5 ml of 20 mM Tris-HCl, 5 mM EDTA, pH 7.5, and lysed by sonication. The cell lysates are centrifuged at 1000 rpm for 5 min. at 4° C., and the supernatant is centrifuged at 30,000× g for 20 min. at 4° C. […] Optimal membrane suspension dilutions, defined as the protein concentration required to bind less than 10% of the added radioligand, […], unlabeled compounds, and binding buffer to a final volume of 250 μl. In equilibrium saturation binding assays membrane preparations are incubated in the presence of increasing concentrations of [^3H]-labeled compound.
Competition assay: 50 pM radioligand, 10–12 points. Binding reaction mixtures are incubated for 2 hr at 25° C., and the reaction stopped by filtration through a double layer of GF filters treated with 0.1% polyethyleneimine, using a cell harvester. Wash buffer: 50 mM Tris-HCl, 0.1% BSA. Radioactivity may be measured by scintillation counting and data are analyzed by a computerized non-linear regression program. Non-specific binding is defined as the amount of radioactivity remaining after incubation of membrane protein in the presence of 1 μM final concentration […]. Protein concentration may be measured by the Bradford method using Bio-Rad Reagent, with bovine serum albumin as a standard. […]

[2] = biological target: T2, NPFF2 (hNPFF2) (Homo sapiens, UniProt Q9Y5X5); test: Voltage-clamp electrophysiology in Xenopus oocytes expressing NPFF2 (NPFF-like) and chimeric Gαq/z; format: cell-based; conditions: 1 μM, oocytes with NPFF2 (NPFF-like) mRNA and Gαq/z, −80 mV
T2 construct: BO89, was determined to be a full length clone with no point mutations; expressed in transfected cells; host or cells: Xenopus laevis oocytes injected with synthetic mRNA
Experimental: Electrophysiological responses in voltage-clamped oocytes expressing NPFF2 mRNA. […] Oocytes were clamped at a holding potential of −80 mV.
For expression of NPFF2, mRNA transcripts were generated as described for NPFF1, using PCR products from ligation reactions or linearized DNA from B089 as DNA templates. Oocytes were injected with 5–50 ng NPFF2 mRNA and incubated as previously described.
(§1) Oocytes were harvested from Xenopus laevis and injected with mRNA transcripts as previously described (Quick and Lester, 1994; Smith et al., 1997). […] Three to eight hours prior to recording, oocytes were injected with 500 pg Gαq/z mRNA in order to observe coupling to Ca^++ activated Cl^− currents. Dual electrode voltage clamp (Axon Instruments Inc.) was performed using 3 M KCl-filled glass microelectrodes having resistances of 1–2 Mohm. Unless otherwise specified, oocytes were voltage clamped at a holding potential of −80 mV. During recordings, oocytes were bathed in continuously flowing (1–3 ml/min) medium containing 96 mM NaCl, 2 mM KCl, 1.8 mM CaCl2, 1 mM MgCl2, and 5 mM HEPES, pH 7.5 (ND96). Drugs were applied either by local perfusion from a […] glass capillary tube fixed at a distance of 0.5 mm from the oocyte, or by switching from a series of gravity fed perfusion lines.

[3] = biological target: T3, SNORF2 (NPFF1) (Rattus norvegicus, UniProt Q9EP86); test: Voltage-clamp electrophysiology in Xenopus oocytes expressing SNORF2 (NPFF1) and chimeric Gαq/z; format: cell-based; conditions: 10 μM; oocytes with SNORF2 and Gαq/z
T3 construct: from linearized plasmids or PCR products containing the complete coding region of the genes; expressed in transfected cells; host or cells: Xenopus laevis oocytes injected with synthetic RNA
Experimental: as §1
Heterologous expression of GPCRs in Xenopus oocytes has been widely used to determine the identity of signaling pathways activated by agonist stimulation (Gundersen et al., 1983; Takahashi et al., 1987). Activation of the phospholipase C (PLC) pathway is assayed by applying test compound in ND96 solution to oocytes previously injected with mRNA for the mammalian receptor and observing inward currents at a holding potential of −80 mV. […]

SMILES	Ki [1]	inward current response [2]	inward current response [3]	inward current response ([2]; listed as PGRF-amide)	inward current response ([2]; listed as PQRF-amide)
CSCC[C@H](NC(=O)[C@@H](N)Cc1ccccc1)C(=O)N[C@@H](CCCNC(=N)N)C(=O)N[C@@H](Cc1ccccc1)C(N)=O [FMRFa]	3.3 nM	No activity was observed			
N=C(N)NCCC[C@H](NC(=O)[C@H](CCC(N)=O)NC(=O)[C@@H]1CCCN1)C(=O)N[C@@H](Cc1ccccc1)C(N)=O [PQRFa]	6.58 nM		elicited responses	smaller	activated similar inward currents
